Antibody variant affinities, Ab-14 light chain, assay B

Binding partner: SARS-CoV-2 spike HR2 peptide, sequence PDVDLGDISGINAS.

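Designed CDR sequences, proposed from the first random library and measured here. Their group label is 14L_En_Gibbs (En: ensemble of fine-tuned language models; Gibbs: Gibbs sampling). The assay is AlphaSeq: two haploid yeast populations carry antibody and antigen on their surface. Binding brings cells together so that they mate, and sequencing counts the barcode pairs among the diploids. Read counts were normalised to the haploid input and turned into Kd by a linear fit to BCL2-family pairs of known affinity, for each replicate. Mating was done six times.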

Ab-14 is the parent antibody, in scFv form: VH, then a 15-residue (Gly4Ser)3 linker, then VL. The heavy chain is unchanged in all variants.
VH: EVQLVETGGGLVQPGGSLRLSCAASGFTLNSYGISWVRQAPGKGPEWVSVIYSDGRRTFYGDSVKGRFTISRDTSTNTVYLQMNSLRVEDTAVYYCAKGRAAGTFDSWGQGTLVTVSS
VL: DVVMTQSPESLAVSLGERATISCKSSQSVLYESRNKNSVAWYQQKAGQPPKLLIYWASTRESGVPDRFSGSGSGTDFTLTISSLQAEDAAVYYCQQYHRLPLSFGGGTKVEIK

Variants are written as CDR1, CDR2 and CDR3 of the light chain (limits as in the source). Parent: KSSQSVLYESRNKNSVA, WASTRES, QQYHRLPLS. Numbers give log10(Kd / nM), so 0 is 1 nM and 3 is 1 µM. Smaller is tighter. Replicates are averaged; those with no signal do not enter the mean. "n.d." means that the variant was in the library but no mating with the target was seen in that replicate; the authors take this as a sign of poor binding, and no number exists.

CDR-L1 | CDR-L2 | CDR-L3 | log10 Kd (nM) by replicate | mean, log10 nM | control signals
KIQPHLSQSFASKNNIA | DRVLSAE | QQYNRLPLV | 0.10 / 0.07 / -0.17 / -0.21 / -0.14 / -0.01 | -0.06 | 5 of 18 (2.99)
RLTNEFEKVSHHKNSIA | HTDQRCM | QQYFTLPLS | 0.71 / 0.48 / 0.49 / 0.47 / 0.49 / 0.64 | 0.55 | 1 of 18 (5.00)
SFDLTKSGMENEQYSIA | ERNVLMT | QDYHRLPLA | n.d. / n.d. / n.d. / 2.62 / n.d. / n.d. | 2.62 | 0 of 18
NVAGMMDNHNNQNQHIA | DMEIKCD | QQYQRLPLH | 0.76 / 0.47 / 0.40 / 0.30 / 0.19 / 0.55 | 0.45 | 1 of 18 (2.85)
HLQEQSFVGQKDYWSVA | NTECKYN | QQYAQLPLM | n.d. / 2.55 / 1.69 / 2.59 / 2.69 / 2.70 | 2.45 | 1 of 18 (3.52)
RITPLSDYYNENRNAIA | QTSLKAH | QQYQMLPLT | 1.13 / 0.76 / 0.73 / 0.88 / 0.89 / 1.05 | 0.91 | 1 of 18 (2.64)
KLQNFSQEDNKMWNNVA | DMTMVHT | QQYNRLPLE | 2.46 / n.d. / n.d. / n.d. / n.d. / 1.43 | 1.94 | 0 of 18
SLPNARPDGSLQKNNVA | EGTERSD | QQYMRLPLF | 0.36 / 0.24 / 0.14 / 0.02 / 0.00 / 0.21 | 0.16 | 0 of 18
NLSYRQGEPTNMVNSVA | QTSLRAH | QQYHHLPLC | 0.70 / 0.68 / 0.94 / 0.47 / 0.41 / 0.82 | 0.67 | 6 of 18 (2.89)
RMNKFMSPITEAKNSVA | GAEHLAQ | QSYHRLPLS | 0.40 / 0.53 / 0.53 / 0.08 / 0.25 / 0.38 | 0.36 | 0 of 18
QLGKQAQGLMVSNQSVA | NEEMRAK | QQYFRLPFI | 1.84 / 1.05 / -0.17 / 1.53 / 0.71 / 0.49 | 0.91 | 0 of 18
TLKMDKLPGQVNAYNIA | EAELVEN | QQYFHLPLY | n.d. / n.d. / n.d. / n.d. / n.d. / n.d. | n.d. | 0 of 18
ALRQKGFELHGDRQSIA | HSDTRAA | QQYSRLPLA | 0.38 / 0.38 / 0.35 / 0.26 / 0.17 / 0.35 | 0.31 | 2 of 18 (3.17)
KMRVSALQGIYRADSIA | STDIRVL | QQYHHLPLS | 0.80 / 0.80 / 0.75 / 1.25 / 1.18 / 1.76 | 1.09 | 0 of 18
RIQEQMQKPDNIGQNVA | ENQTVID | QQYAHLPLI | n.d. / 1.39 / n.d. / 1.53 / 2.53 / 2.35 | 1.95 | 0 of 18
NLSIEMSYYYENRYNIA | DMTVREY | QHYSRIPLA | 0.73 / 0.60 / 0.94 / 0.58 / 0.37 / 0.69 | 0.65 | 1 of 18 (1.84)
TMAYQPETINGRVNNVA | NGSEAVE | QQYDRLPFV | 1.65 / 0.55 / -0.01 / 0.87 / 0.55 / 1.02 | 0.77 | 0 of 18
QIQGKLQHGGNQGDNVA | QGVETKN | QQYYTLPLT | 1.64 / 1.17 / 1.21 / 1.14 / 1.87 / 1.83 | 1.48 | 0 of 18
QLSMWEQNGTRGYSSVA | DDDVRMA | QQYHRLPLS | 1.30 / 1.56 / 1.57 / 1.54 / 1.72 / 1.95 | 1.61 | 4 of 18 (2.95)
ALNQKGFQLHGDRQSIA | HSDTRLA | QQYYRLPLA | 0.47 / 2.05 / 2.01 / 0.90 / 1.57 / n.d. | 1.40 | 0 of 18
MIEQGENEQEQHKNAIA | SGHERPR | QQYYKLPLV | 0.76 / 0.54 / 0.39 / 0.47 / 0.62 / 1.02 | 0.63 | 1 of 18 (2.64)
KLMHYKLGENGMRGSVA | NMTIREY | QQYFHLPLF | 0.97 / 1.21 / 1.08 / 1.82 / 1.71 / 0.97 | 1.29 | 0 of 18
QLDQAYRVGGLWKQSIA | HGSMRVQ | QCYVRLPLS | n.d. / n.d. / n.d. / n.d. / 2.39 / 1.72 | 2.05 | 1 of 18 (3.42)
SITIYTDENGLKMQSIA | GAGNRML | QQYHRLPLT | 0.49 / 0.45 / 0.41 / -0.02 / -0.10 / 0.75 | 0.33 | 1 of 18 (3.11)
FITGNYYDKYQASNSIA | DEAHLMA | QQYDLLPLS | 2.83 / 1.48 / n.d. / 1.61 / 1.69 / 1.39 | 1.80 | 0 of 18
KLSLNLNDMDARMWNVA | EGNQLKA | QDYHRLPLH | 0.87 / 0.94 / 0.55 / 0.61 / 0.66 / 0.91 | 0.76 | 0 of 18
KVHAYTQGVEQDMQNVA | EGSYASR | QQYFRLPLS | 0.92 / 1.15 / 1.28 / 0.68 / 0.98 / 0.72 | 0.96 | 0 of 18
NVGIEDPGQWYMWDSIA | DSSLRAE | QQYWRLPLM | 0.25 / 0.20 / 0.05 / -0.11 / -0.03 / 0.27 | 0.10 | 1 of 18 (3.45)
SLTNETDGNYGRNNSVA | NAEELMT | QAYFRLPIT | n.d. / 1.61 / n.d. / 0.81 / 1.95 / 1.63 | 1.50 | 0 of 18
KLMNSLGAFKQSEDNVA | EVEHKVA | QQYDHLPLT | 1.27 / 1.22 / 0.93 / 0.99 / 0.86 / 1.55 | 1.14 | 1 of 18 (2.66)
QLDWYNTTATASANNVA | DVAQRVN | QQYMRLPLM | 0.05 / 0.13 / -0.07 / -0.10 / -0.11 / 0.05 | -0.01 | 4 of 18 (2.73)
QLLTGVTENAKNGKAIA | EHELKAH | QQYFRLPFS | 1.16 / 1.13 / 0.76 / 0.79 / 0.87 / 1.06 | 0.96 | 1 of 18 (1.55)
IVTYAQNDGSLYTNNIA | EGENTLA | QQYFRLPLM | 1.70 / 1.57 / 1.00 / 1.36 / 1.69 / 0.83 | 1.36 | 0 of 18
HVSGLYTDESVRWYNIA | ETSHVEM | QQYERLPLI | 1.03 / 1.07 / 0.90 / 2.31 / 1.86 / 1.78 | 1.49 | 0 of 18
QVQYAPGESLRHTQSIA | DVNIKDM | QQYARLPLS | 0.56 / 0.34 / 0.47 / 0.63 / 0.75 / 0.92 | 0.61 | 1 of 18 (2.35)
KLVGPDDNDNQDMRAVA | DVNTLGN | QQYHRLPLG | 2.10 / 0.97 / 1.48 / 1.14 / 1.39 / 1.66 | 1.46 | 0 of 18
DLTVSDNYGSQLENNIA | QGVQKCE | QQYSRLPLA | 0.19 / -0.24 / -0.07 / -0.19 / -0.09 / 0.17 | -0.04 | 2 of 18 (3.07)
NMSDSIEKMASIERNIA | DETTRAM | QQYYRLPLS | 0.88 / 0.65 / 0.49 / 0.31 / 0.33 / 0.73 | 0.56 | 1 of 18 (4.42)
QLAVDRLQEYKMGAAIA | GKTTVED | QQYARLPLS | 1.40 / 2.60 / 1.40 / 1.36 / 0.93 / 1.18 | 1.48 | 0 of 18
KIQPHLQQSFASKNNVA | DRQLSAE | QQYNRLPLV | 0.50 / 0.62 / 0.44 / 0.20 / 0.64 / 0.42 | 0.47 | 0 of 18
KITQIFSPKGNSDHSVA | NANTLAH | QQYYMLPLM | 0.21 / 0.39 / 0.29 / -0.11 / 0.07 / 0.25 | 0.18 | 0 of 18
KIMSHAERGNGIAGQIA | DAHERIT | QQYQHLPLS | 0.45 / 0.20 / 0.45 / 0.65 / 0.18 / 0.94 | 0.48 | 2 of 18 (2.57)
MLDNCQAGYYQKNNNIA | EMNMRCY | QQYGRLPLM | n.d. / n.d. / n.d. / n.d. / n.d. / n.d. | n.d. | 0 of 18
NISFEMVSPHNHSNSVA | STSKRCS | QQYFTLPLS | 1.95 / 0.93 / 0.86 / 1.09 / 0.28 / 0.83 | 0.99 | 0 of 18
ALGQKGFQQSGMRDSIA | HSDIRLA | QQYYHLPLA | 0.58 / 0.34 / 0.11 / 0.26 / 0.32 / 0.40 | 0.33 | 0 of 18
HTQHLGFGDPAHWNSIA | EVSQVCS | QQYMRLPLT | 0.37 / 0.75 / 0.14 / 0.31 / 0.47 / 0.43 | 0.41 | 0 of 18

Again, the first 2 entries without any signal:

CDR-L1,CDR-L2,CDR-L3,log10 Kd (nM) by replicate,"mean, log10 nM",control signals
TLKMDKLPGQVNAYNIA,EAELVEN,QQYFHLPLY,n.d. / n.d. / n.d. / n.d. / n.d. / n.d.,n.d.,0 of 18
MLDNCQAGYYQKNNNIA,EMNMRCY,QQYGRLPLM,n.d. / n.d. / n.d. / n.d. / n.d. / n.d.,n.d.,0 of 18

As a blank, each scFv also met three strains without target: over all light chain designs, 4% of these pairings were detected, typically at 2.64 and seldom below 1.59. For each scFv, signals with the empty controls are counted beside the result, with their mean in brackets. Of ten entries with the parent sequence, four were seen in most replicates (averages 0.34 to 2.37), three in one and three in none, so single entries are noisy. The authors' rule: three or more of the six replicates give a measured affinity, fewer mean a poor binder. A sequence measured in both rounds can read differently, since the two assays cover different ranges.

Values reported by Li et al. 2023, doi:10.1038/s41467-023-39022-2 (FLAb copy).